Reference: PubChem BioAssay AID678 (Vanderbilt High Throughput Screening Facility, 2007)
The hits were mostly taken out for another list; the other results follow. Activity calls are given as the source filed them.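 Rule for the calls: active = fluorescence response below the plate's average for near-maximal glutamate wells, less 3 SD of those wells; inactive = the rest.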

Target: Metabotropic glutamate receptor 4 (Homo sapiens) (UniProt Q14833)
Test: human mGluR4 response to M1 antagonist hits, M1 allosteric modulator project, cell-based, antagonist mode, secondary assay 1 (AID 678);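 note: raw unnormalized fluorescence span taken in the window right after glutamate addition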
Settings: CHO-mGluR4 calcium flux, Fluo-4 fluorescence, glutamate EC80; at 10 µM; stronger effect = lower value

Fluorescence response (max-min), inactive:
CNCCCN1c2ccccc2CCc2ccccc21 242
OC(CCN1CCCCC1)(c1ccccc1)C1CCCCC1 (configuration not stated) 268
OCCN1CCN(CCCN2c3ccccc3Sc3ccc(Cl)cc32)CC1 265
Cc1ccc(N(CC2=NCCN2)c2cccc(O)c2)cc1 276
CN1C2CCC1CC(OC(=O)c1c[nH]c3ccccc13)C2 (configuration not stated) 230
CCN(CC)CCOC(=O)C1(C2CCCCC2)CCCCC1 263
CC(C)[N+]1(C)[C@@H]2CC[C@H]1CC(OC(=O)C(CO)c1ccccc1)C2 (some centres not stated) 245
